In patent US20190151346A1, “COMBINATIONS THERAPIES FOR THE TREATMENT OF CANCER” (INSERM (INSTITUTE NATIONAL DE LA SANTÉ ET DE LA RECHERCHE …, priority 2016, published 2019):

System: EGFR
Test: Tyrosine phosphorylation by Western blotting: EGFR phosphorylation in TNBC cell lines
Type: cell-based
Protocol: BT20 and MDA-MB468 triple negative (HER2-, ER-, PR-) were obtained from American Type Culture Collection (ATCC N°HTB19, and ATCC N°HTB132, respectively). […] MDA-MB468 cells were grown in a complete DMEM-F12 media with glutamine, 10% FCS and penicillin—streptomycin. All cells were maintained in a humidified 5% CO2 atmosphere at 37° C. All experiments were conducted with cells at confluency and starved for an overnight.
Cells (3×10^5) were seeded in 6-well plates in complete medium for 24 hours then starved for another overnight. Cells were then stimulated with IL-17E (10 ng/ml), EGF (10 ng/ml), or a combination of both for 30 min in serum-free medium. Cells were then lysed in 1% Triton X100 buffer and left on ice for 1 hours. Protein samples were then subjected to 8% SDS-PAGE. Western blotting using specific antibodies assessed then the phosphorylation of the various kinases.

COc1cc2ncnc(Nc3ccc(F)c(Cl)c3)c2cc1OCCCN1CCOCC1 [Iressa, Gefitinib]
EGFR tyrosine phosphorylation induced by the combination of IL-17E and EGF (BT20 and MDA-MB468, Iressa 0.25 μM, FIG. 2B): remarkably decreased | EGFR tyrosine phosphorylation induced by the combination of IL-17E and EGF (IJG-1731, Iressa 0.25 μM, FIG. 2B): to a lesser extends | IL-17B and -E induced Y1086EGFR phosphorylation (TNBC cell lines, in the presence of Iressa, discussion): specific inhibition | IL-17E- and EGF-induced Y1086-EGFR phosphorylation (three cell lines (IJG-1731, BT20, MDA-MB468), Iressa 0.25 μM, FIG. 2B): similarly decreased
